Columns and labels:
[1] = target: kappa opioid receptor (Homo sapiens, UniProt P41145); experiment: Affinity at the k receptor ([35S]GTPγS binding assay, opioid receptor membranes); assay type: biochemical; conditions: read-out: calc Ki (nM) k
[2] = target: delta opioid receptor (Homo sapiens, UniProt P41143); experiment: Affinity at the δ receptor ([35S]GTPγS binding assay, opioid receptor membranes); assay type: biochemical; conditions: read-out: calc Ki (nM) δ2
[3] = target: human opioid receptor-like receptor (ORL-1) (Homo sapiens, UniProt P41146); conditions: read-out: Nociceptin Affinity calc Ki; ORL-1 membranes from recombinant HEK-293 cells
[4] = target: Mu opioid receptor (Homo sapiens, UniProt P35372); experiment: Affinity at the μ receptor ([35S]GTPγS binding assay, opioid receptor membranes); assay type: biochemical; conditions: read-out: calc Ki (nM) μ

Question: For O=c1[nH]c2ccccc2n1C1CCN(Cc2ccc(-c3ccccc3)cc2)CC1, which Ki [1] is on record?
Answer: 1300 nM

Question: And the Ki [2]?
Answer: 3290 nM

Question: What about the Ki [3] of the same molecule?
Answer: 1.25 µM

Question: What about the Ki [4] of the same molecule?
Answer: 105 nM

Source: US7678809B2 (priority 1999, dated 2010)
